# Test results published in PubChem BioAssay AID1346428 (National Center for Advancing Translational Sciences (NCATS), 2018).
# By UniProt entry, the sequences of proteins in these tests, tags left out. Where a name states a change or a piece, a line headed by the entry shows the natural chain unless it says otherwise.
# UniProt O75388: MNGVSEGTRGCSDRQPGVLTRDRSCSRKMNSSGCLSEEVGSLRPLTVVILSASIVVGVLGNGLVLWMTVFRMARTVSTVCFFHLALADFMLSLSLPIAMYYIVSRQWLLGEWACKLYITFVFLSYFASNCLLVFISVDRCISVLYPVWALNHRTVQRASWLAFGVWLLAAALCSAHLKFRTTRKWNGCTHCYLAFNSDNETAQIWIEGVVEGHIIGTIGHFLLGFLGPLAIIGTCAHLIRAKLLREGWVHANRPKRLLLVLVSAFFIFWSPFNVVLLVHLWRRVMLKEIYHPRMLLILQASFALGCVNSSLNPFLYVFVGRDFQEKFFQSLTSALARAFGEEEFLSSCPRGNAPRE
# “And” between values parts separate entries of the source, which are not always exact repeats. Identical values can stand only once. The entries are a selection whose mix differs from that of the whole data set. The source made the active and inactive calls.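 The calls were made as follows: active = activation of at least 60% and not above a set upper limit (about 1 call in 100 departs from these limits); inconclusive = activation of 40% to 60%, or above that upper limit; inactive = activation under 40%.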
# Biological target: Probable G-protein coupled receptor 32 (Homo sapiens) (UniProt O75388)
# Assay: qHTS for Agonists of Human Resolvin D1 Receptor DRV1; also: 0% is about no effect
# Details: CHO-K1 GPR32 beta-arrestin PathHunter luminescence, 90 min; at 76.9 µM; hits give high values; zero percent set by DMSO-only wells
row,Compound,activation
1,CCNC(C)Cc1ccc2c(c1)OCO2 (stereo not given),inactive: 5.81%
2,CN(C(=O)Cc1ccc(Cl)c(Cl)c1)[C@H]1CCCC[C@@H]1N1CCCC1,inactive: -9.25% and inactive: -9.14%
3,Cc1cc([N+](=O)[O-])cc([N+](=O)[O-])c1O,inactive: -92%
4,CN(C(=O)Cc1ccccc1)[C@H]1CC[C@@]2(CCCO2)C[C@@H]1N1CCCC1,inactive: -29.6%
5,CN(C(=O)Cc1ccc(Cl)c(Cl)c1)[C@@H]1CCCC[C@@H]1N1CCCC1,inactive: -2.77%
6,CN(C(=O)Cc1ccc(Cl)c(Cl)c1)[C@@H]1CC[C@]2(CCCO2)C[C@H]1N1CCCC1,inactive: -13.6%
7,CN(C(=O)Cc1ccc(Cl)c(Cl)c1)[C@H]1CC[C@@]2(CCCO2)C[C@@H]1N1CCCC1,inactive: -1.05%
8,CN(C(=O)Cc1ccccc1)[C@@H]1CC[C@]2(CCCO2)C[C@H]1N1CCCC1,inactive: -4.53%
9,NC(=O)Nc1ccc([As](=O)(O)O)cc1,inactive: -6.13%
10,CN(CCCl)Cc1cc(Cl)c(NC2=NCCN2)c(Cl)c1,inactive: 3.41%
